# Data published in patent publication US20070053894.
# Amino acid sequences for entries named in this document (tags omitted). Residues count along the entry.
# UniProt P00747, 20-810: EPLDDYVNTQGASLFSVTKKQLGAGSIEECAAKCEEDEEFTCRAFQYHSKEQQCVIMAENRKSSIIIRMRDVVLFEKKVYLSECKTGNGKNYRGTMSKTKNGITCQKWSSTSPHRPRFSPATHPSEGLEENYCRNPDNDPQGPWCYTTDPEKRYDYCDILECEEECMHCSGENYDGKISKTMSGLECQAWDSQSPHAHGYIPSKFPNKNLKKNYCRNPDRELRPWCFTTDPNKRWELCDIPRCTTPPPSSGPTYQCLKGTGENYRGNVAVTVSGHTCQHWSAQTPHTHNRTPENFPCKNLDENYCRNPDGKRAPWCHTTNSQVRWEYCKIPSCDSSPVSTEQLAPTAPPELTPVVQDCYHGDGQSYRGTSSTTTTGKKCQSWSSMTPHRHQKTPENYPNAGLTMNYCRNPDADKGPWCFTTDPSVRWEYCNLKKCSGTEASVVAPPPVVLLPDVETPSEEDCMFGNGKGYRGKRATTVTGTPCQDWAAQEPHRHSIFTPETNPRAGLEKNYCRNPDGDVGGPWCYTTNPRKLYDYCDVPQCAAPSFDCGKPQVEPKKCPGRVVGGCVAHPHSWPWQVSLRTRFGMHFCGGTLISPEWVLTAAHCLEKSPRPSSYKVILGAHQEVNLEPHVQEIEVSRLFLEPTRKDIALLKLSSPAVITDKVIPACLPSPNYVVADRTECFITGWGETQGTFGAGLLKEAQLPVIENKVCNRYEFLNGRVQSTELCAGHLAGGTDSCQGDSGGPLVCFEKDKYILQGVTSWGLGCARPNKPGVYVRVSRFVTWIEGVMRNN
# Target: plasminogen (UniProt P00747)
substance,measurement,value
pro-urokinase plasminogen activator (pro-uPA),"apparent Km of pro-uPA for plasminogen, with 250 nM p97",from 188±22 to 102±17 nM
same,"apparent Km of pro-uPA for plasminogen, without p97",from 188±22 to 102±17 nM
